# Reference: patent US20150272951A1, “COMPOUNDS FOR THE TREATMENT OF LYSOSOMAL STORAGE DISEASES” (The Hospital for Sick Children, priority 2010, published 2015)
# Chains of the proteins cited; added tags and fusions are not shown. Residues count along the entry.
# UniProt P06865, 89-529: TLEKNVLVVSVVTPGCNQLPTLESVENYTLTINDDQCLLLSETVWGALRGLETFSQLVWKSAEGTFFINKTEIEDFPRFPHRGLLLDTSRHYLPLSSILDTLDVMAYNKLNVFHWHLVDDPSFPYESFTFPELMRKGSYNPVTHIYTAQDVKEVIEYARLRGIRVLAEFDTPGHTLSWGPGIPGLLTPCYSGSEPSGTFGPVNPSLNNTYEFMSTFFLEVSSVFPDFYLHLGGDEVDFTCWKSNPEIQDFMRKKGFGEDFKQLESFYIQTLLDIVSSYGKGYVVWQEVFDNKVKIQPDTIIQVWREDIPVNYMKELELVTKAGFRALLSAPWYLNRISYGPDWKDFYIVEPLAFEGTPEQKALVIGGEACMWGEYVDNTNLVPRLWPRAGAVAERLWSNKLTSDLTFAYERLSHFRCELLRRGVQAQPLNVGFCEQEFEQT
# UniProt P07686, 315-556 limits assumed: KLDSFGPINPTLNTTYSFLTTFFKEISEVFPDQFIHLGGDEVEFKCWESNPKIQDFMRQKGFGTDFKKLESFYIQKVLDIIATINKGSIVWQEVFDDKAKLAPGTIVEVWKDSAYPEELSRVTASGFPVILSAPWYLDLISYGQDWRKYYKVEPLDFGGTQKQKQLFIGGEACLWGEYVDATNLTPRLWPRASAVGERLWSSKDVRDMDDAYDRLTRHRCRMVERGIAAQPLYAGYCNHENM
# UniProt P07686, 122-311 limits assumed: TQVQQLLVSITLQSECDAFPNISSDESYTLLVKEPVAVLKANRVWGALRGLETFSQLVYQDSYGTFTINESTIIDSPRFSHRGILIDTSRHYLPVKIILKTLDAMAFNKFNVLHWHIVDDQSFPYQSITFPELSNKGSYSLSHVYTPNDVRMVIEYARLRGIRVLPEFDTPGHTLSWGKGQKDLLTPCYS
# pIC50: −log10 of the molar value.
# Target: Hex A (Homo sapiens, UniProt P06865+P07686)
# Test: Hex A inhibition (IC50 from dose response curves of Hex A residual activity);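 note: remaining Hex A enzyme activity recorded across rising inhibitor doses, with dose response curves run at pH 6.5 and again at pH 4.5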
# Settings: read-out: IC50 HexA pH 4.5; purified HexA, pH 4.5, 1.6 mM 4-methylumbelliferone-b-N-Acetylglucosamine substrate
structure (smiles),measurement,value
CCc1nc(N)nc(N)c1-c1ccccc1 [ksh3-10],pIC50,4.52
